Sampled rows, rich in hits. Any-hit rate of the full collection: about 0.43%.
HCMV NEC inh – disrupts HCMV UL50-UL53 complex binding; HTRF UL50-UL53 interaction, normalized percent inhibition; inhibition, % (concentration not given with the values); hit rate 0.15% among 190,000; AID 1918969; in the data active = inhibition above about 27%, passing the limit was not always enough
GIV-Gai inh – inhibitors of GIV GBA-motif binding to rat Galpha-i3; P08753; Galpha-i3/FITC-GIV peptide fluorescence polarization, 90 min; active compounds read low; scaled: aluminum fluoride 0%, vehicle 100%; percent of control (FP), % (concentration not given with the values); 210,000 compounds, 0.42% hits; AID 1224905;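 active means replicate mean at 85% of control or lower, very high polarization wells dropped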;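 further: wells of about 15 µL received 100 nL stock; the first replicate is given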
GIV Gai FP conf – confirmation of inhibitors of GIV binding to rat Galpha-i3 | FITC-GIV peptide binding to Galphai3, fluorescence polarization; stronger effect = lower value | hit rate 38% among 580 | fluorescence polarization, mP at 100 µM | shares compounds with GIV-Gai inh;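 active = inhibition score of 15 or more, meaning 100 minus mean polarization as percent of control over three replicates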
GIV Gai AS conf – confirmation of inhibitors of GIV binding to human Galpha-i3; shares compounds with GIV-Gai inh; AlphaScreen Galphai3-GIV binding, purified proteins, 90 min; stronger effect = lower value; AlphaScreen counts at 100 µM; hit rate 39% among 580;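 active = inhibition score at or above a set limit, where the score is 100 minus the three-replicate mean percent of control signal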
Starred values were filed as active, the others as inactive; i = inactive; . = not tested or not shown.

| no. | Compound | HCMV NEC inh | GIV-Gai inh | GIV Gai FP conf | GIV Gai AS conf |
| --- | --- | --- | --- | --- | --- |
| 1 | COc1ccc(OCC(=O)NCCSc2ccccn2)cc1 | -16 | 102 | . | . |
| 2 | CC(=O)[C@@H]1[C@H]2C3COC(O3)C(=O)[C@@H]2[C@H]2C=Cc3ccccc3N21 (stereo not given in full) | . | 80* | 51* | 7239* |
| 3 | CC(C)(C)C(=O)C1C2C3COC(O3)C(=O)C2C2C=Cc3ccccc3N21 (stereo not given) | i | 100 | . | . |
| 4 | N#Cc1cccc(NC(=O)C2SC(=NCc3ccco3)C(C(=O)N3CCCC3)=C2N)c1 (stereo not given) | -33 | . | . | . |
| 5 | S=c1nc(C2COc3ccccc3O2)[nH][nH]1 (stereo not given) | -2 | . | . | . |
| 6 | S=c1[nH]nc(C2COc3ccccc3O2)o1 (stereo not given) | -1 | 83* | 68 | 3039* |
| 7 | COc1ccc(NC(=O)CCc2c(C)nn(-c3cc(N4CCCC4)ncn3)c2C)cc1OC | -25 | 101 | . | . |
| 8 | COc1ccc(C(=O)CSc2nnc(-c3ccco3)c(-c3ccco3)n2)cc1 | . | 111 | . | . |
| 9 | O=C(CSc1nnc(-c2ccco2)c(-c2ccco2)n1)Nc1ccc(C(=O)O)cc1 | -64 | 77* | 60* | 2995* |
| 10 | CCCCCCCOc1ccc(C(c2c(C)[nH]n(-c3ccccc3)c2=O)c2c(C)[nH]n(-c3ccccc3)c2=O)cc1 | . | 82* | 73 | 41609 |
| 11 | CCOc1ccccc1C(c1c(C)[nH]n(-c2ccccc2)c1=O)c1c(C)[nH]n(-c2ccccc2)c1=O | . | 113 | . | . |
| 12 | Cc1[nH]n(-c2ccccc2)c(=O)c1C(c1ccc(N(C)C)cc1)c1c(C)[nH]n(-c2ccccc2)c1=O | . | 104 | . | . |
| 13 | Cc1[nH]n(-c2ccccc2)c(=O)c1C(c1ccc(OCc2ccccc2Cl)cc1)c1c(C)[nH]n(-c2ccccc2)c1=O | . | 107 | . | . |
| 14 | Cc1[nH]n(-c2ccccc2)c(=O)c1C(c1ccccc1)c1c(C)[nH]n(-c2ccccc2)c1=O | . | 77* | 63 | 18252* |
| 15 | Cc1[nH]n(-c2ccccc2)c(=O)c1C(c1cccc([N+](=O)[O-])c1)c1c(C)[nH]n(-c2ccccc2)c1=O | . | 103 | . | . |
| 16 | Cc1[nH]n(-c2ccccc2)c(=O)c1C(c1cccc(Br)c1)c1c(C)[nH]n(-c2ccccc2)c1=O | . | 74* | 68 | 23480* |
| 17 | COc1ccccc1C(c1c(C)[nH]n(-c2ccccc2)c1=O)c1c(C)[nH]n(-c2ccccc2)c1=O | . | 74* | 66 | 42679 |
| 18 | CCc1ccc(NC(=O)N2CC(C)CC(C)C2)cc1 (stereo not given) | -33 | 104 | . | . |
| 19 | C=CCn1c(-c2ccncc2)nn(CN(C)CCc2ccc(OC)c(OC)c2)c1=S | -39 | . | . | . |
| 20 | O=C(COC(=O)C1CC(=O)N(Cc2ccco2)C1)c1ccc(-c2ccccc2)cc1 (stereo not given) | 2 | . | . | . |
| 21 | CC(=O)N/N=C/c1cn(-c2ccccc2)nc1-c1cccs1 | -32 | . | . | . |
| 22 | COc1ccccc1Oc1cc(-c2cccc(C(=O)Nc3ccc(C)cc3C)c2)ncn1 | . | 105 | . | . |
| 23 | COc1cc(C(c2c(C)[nH]n(-c3ccccc3)c2=O)c2c(C)[nH]n(-c3ccccc3)c2=O)ccc1O | . | 120 | . | . |
| 24 | Cc1[nH]n(-c2ccccc2)c(=O)c1C(c1cccc(O)c1)c1c(C)[nH]n(-c2ccccc2)c1=O | . | 66* | 51* | 11539* |
| 25 | COC(=O)c1c(N)c(C#N)c2n1CCC2 | . | 80* | 49* | 20250* |

(listing goes on)
| no. | Compound | HCMV NEC inh | GIV-Gai inh | GIV Gai FP conf | GIV Gai AS conf |
| --- | --- | --- | --- | --- | --- |
| 26 | COC(=O)c1c(N)c(C#N)c2n1CCCC2 | -24 | 102 | . | . |
| 27 | O=C(c1cccnc1)N1C(=O)c2cccc3c(S(=O)(=O)N4CCCCC4)ccc1c23 | -22 | 103 | . | . |
| 28 | Cc1nc(N2CCCC2)nc2oc(-c3ccccc3)nc12 | -31 | 115 | . | . |
| 29 | Cc1nc(N2CCN(c3ccccn3)CC2)nc2oc(-c3ccccc3)nc12 | -16 | 93 | 98 | 26416 |
| 30 | CCN1CCN(c2ccc(N=Cc3cc(I)ccc3O)cc2)CC1 | -29 | 28* | 81 | 28751 |
| 31 | Oc1ccc(C=Nc2ccc(N3CCOCC3)cc2)cc1O | -29 | . | . | . |
| 32 | Cc1cc(C)c2c3c(oc2n1)C(=O)N(c1cccc(C(F)(F)F)c1)CC(=O)N3 | 5 | 106 | . | . |
| 33 | O=Cc1c(O)c2ccccc2c2ccccc12 | -27 | 44* | 38* | 22285 |
| 34 | O=c1oc2ccccc2c(O)c1C=Nc1ccccc1 | -14 | 107 | . | . |
| 35 | Cc1cc(=O)cc(C)n1-c1ccc(O)cc1 | 2 | . | . | . |
| 36 | Cc1cc(=O)n(-c2ccc(O)cc2)[nH]1 | 69* | 77* | 49* | 34971 |
| 37 | CCC(C)NC(=O)C1CCN(S(=O)(=O)c2ccc3nc4c(c(C(=O)O)c3c2)CCCC4)CC1 (stereo not given) | . | 105 | . | . |
| 38 | C=CCSc1ncc(Cl)c(C(=O)Nc2sc3c(c2C(=O)OC)CCC3)n1 | 1 | 105 | . | . |

An excerpt of these results, with two lines to a compound.
The line under a structure holds: HCMV NEC inh | GIV-Gai inh | GIV Gai FP conf | GIV Gai AS conf
17: COc1ccccc1C(c1c(C)[nH]n(-c2ccccc2)c1=O)c1c(C)[nH]n(-c2ccccc2)c1=O
 : . | 74* | 66 | 42679
37: CCC(C)NC(=O)C1CCN(S(=O)(=O)c2ccc3nc4c(c(C(=O)O)c3c2)CCCC4)CC1 (stereo not given)
 : . | 105 | . | .
23: COc1cc(C(c2c(C)[nH]n(-c3ccccc3)c2=O)c2c(C)[nH]n(-c3ccccc3)c2=O)ccc1O
 : . | 120 | . | .
29: Cc1nc(N2CCN(c3ccccn3)CC2)nc2oc(-c3ccccc3)nc12
 : -16 | 93 | 98 | 26416

Assay outcomes (PubChem BioAssay)
